# Results taken from patent US20040170976A1, “Solubility reporter gene constructs” (priority 2000, published 2004).
# B1: TM0294: T. maritima glutamate 5-kinase (proB) (protein, UniProt Q9WYD0 1-353, looked up)
# Glutamate 5-kinase: MIMKVVVKVGSNLLVGSSGLRKSYIAELCREVARLKSQGHEISIITSGARAAGFTYLGKGKRTQDLHIKQALCAVGQVQLMKVYENAFDFYGIKIAQILLTRDTFSNRKRYLNLRNTLIGLSEFDVVPIVNENDTVATEEITLGDNDTLAAMFSIAWDADFLVLFTTVDGVIDENGKLVERFDESVKLKDMGKSSWGTGGIRSKIESALMASRCGVKATICSGNDVSNLTRFVKGEPVGTVFEPQGRLKAKKAWIAFLSEPAGKIYVNKGAEEALKSGNSLLPVGVTGVEGTFDVGDVVEIVNEEGELVGRGIVNYSSSDLEKIAGHKSSDLKKILGYEGNKVVVHIDNMWVA
# Experiment: Fractionation of soluble and insoluble recombinant protein by cell lysis and centrifugation / SDS-PAGE
# Format: physicochemical
# Details: T. maritima proteins expressed in E. coli; SDS-PAGE of soluble and insoluble fractions
# Procedure: E. coli strains MG1655 (F^−lam rph1) and KY1429 (F- araD139 Δ(argF-lac)169 lam flhD5301 fruA25 relA1 rpsL150 zhh50::Tn10 rpoH606(ts) deoC1) were transformed with expression plasmids encoding M36881 (LCK) or M86400 (PLA) for expression profiling. Cells were cultured at 37° C. in Luria Broth containing ampicillin. Protein expression was induced by addition of L-arabinose to a final concentration of 0.1% for 1 hour. KY1429 cells were cultured as above except initial growth was performed at 32° C. followed by a shift to 42° C. for non-permissive expression of rpoH606. Top10 cells (F^−-mcrA Δ(mrr-hsdRMS-mcrBC) φ80lacZΔM15 ΔlacX74 deoR recA1 araD139 Δ(ara-leu)7697 galU galK rpsL endA1 nupG) containing the ibpAB promoter fusion (pHK57), were transformed with expression constructs listed above. Beta-galactosidase assays were performed essentially as described by Miller (24). Fractionation of soluble and insoluble proteins was performed by centrifugation. Cultures were resuspended in 50 mM Tris pH 7.9, 50 mM NaCl, 1 mM MgCl2, 3 mM methionine and sonicated for 2 minutes on ice. Cell debris and insoluble protein aggregates were pelleted by centrifugation at 3000×g for 15 minutes. The soluble fraction was removed and the pellets resuspended in an equivalent volume of lysis buffer. […]
molecule,measurement,value
B1,pre-determined expression characteristics,Insoluble
